One molecule from patent publication US4444776A, “Dipyrido (4,3-B) (3,4-F) indoles, process for obtaining them, therapeutical use and pharmaceutical compositions” (priority 1977, dated 1984) can be followed below.

For one assay, the system named is L 1210 leukemia. As to the kind of experiment: Test 11: L 1210 leukemic mice, examples 7 and 8 (Table VIII). To be noted: 0.05 mg/mouse, J+1. The class given is in vivo. Further details: unit not given beside the values. The method, then: This test was carried out with 10^3, 10^4 and 10^5 leukemic cells on day J. This test was also carried out with the compound of example 7, i.e. 1-[(γ-diethylaminopropyl)amino]-5-methyl-dipyrido [4,3-b][3,4-f] indole (compound 21).

In the next assay the test system is L1210 leukemia. The assay can be described thus: Test 16: structure-activity of R'1 substitution, L1210 (Table XII). It is filed as in vivo, mouse (C57B16xDBA/2)F1. To be noted: day +1. Further details: unit not given here. Here is the method: Test 16: Relationship between structure and activity of various dipyrido indoles differing by the R'1 substitution.
The R'1 substitution at the 1 position seems to be very important for the protective effect of the derivatives against L1210 tumor cell growth.
L1210 leukemia has been maintained by weekly passages on (C57B16xDBA/2)F1 mice. On day 0, mice were inoculated by I.P. route with various numbers of L1210 ascitic tumor cells in volumes of 0.1 ml. Subsequently as indicated, drugs were administrated in Ca^++ and Mg^++ free PBS solutions (Gibco) or in Mac Coy's medium (Gibso or Microbiological Associates).
[…] The decrease in the average of host life-span between each consecutive ten-fold increase in size of the leukemic cell inoculum was 2 days. According to the method of calculation of Dombernowsky, the doubling time was 0.615 days.

Each structure is given as a SMILES string.

`Cc1c2ccnc(NCCCN(C)C)c2cc2c1[nH]c1ccncc12` [Example 8, 1-(γ-dimethylaminopropyl)amino-5-methyl-dipyrido-[4,3-b][3,4-f] indole]: the MTS with L 1210 leukemia (10^3 cells) and in the assay with L 1210 leukemia (10^4 cells) was 14.7 in each case. The MST amounted to 14.7 in the assay on L1210 leukemia (10^4 cells, 2.5 mg/kg) and 13.8 in the assay on L1210 leukemia (10^5 cells, 5 mg/kg).
